# Laboratory results taken from PubChem BioAssay AID434977 (Johns Hopkins Ion Channel Center, 2010).
# The entries are a selection whose mix differs from that of the whole data set. Some results for these compounds are left out of this collection, so the calls shown say nothing about other tests. Activity calls are given as the source filed them.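 Rule for the calls: active = calcium signal rise above buffer-control mean plus 5 SD in both duplicates, and also a hit in the primary screen; inactive = the rest.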
# Molecular target: Short transient receptor potential channel 4 (Mus musculus) (UniProt Q9QUQ5)
# Assay: calcium flux activators in TRPC4/5HT1a cells, counter-screen for TRPC4 activator project, cell-based, second counter screen, HEK293 TRPC4/5HT1a, Fluo-4 (AID 434977)
# Details: Fluo-4 calcium flux, at 10 µM
row,SMILES,outcome
1,CN(C)c1ccc(C(=O)NCC2(N(C)C)CCCCC2)cc1,inactive
